The numbers were not newly measured in patent US4859671A, “2-substituted 1,2-benzisothiazol-3(2H)-one 1,1-dioxide useful as an anxiolytic agent” (American Home Products Corporation, priority 1988, dated 1989), which cites them from elsewhere.

In this series the test system is 5-HT1A receptors. Conditions: compared with buspirone; cited from earlier work.

In the case of `CC1(C)CC(=O)N(CCCCN2CCN(c3ncccn3)CC2)C(=O)C1` [Gepirone, 4,4-dimethyl-1-[4-[4-(2-pyrimidinyl)-1-piperazinyl]butyl]-2,6-piperidinedione], the “selectivity for 5-HT1A receptors relative to buspirone (in words)” value is on record as “higher degree of selectivity for 5-HT1A receptors than buspirone”.
